# Measured values from PubChem BioAssay AID556 (SRMLSC, 2006).
# Only a part is listed here, and it is no random draw. Calls of active or inactive are those of the source.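 The calls were made as follows: active = the 320 compounds with the highest percent inhibition in the single-dose primary screen, excluding strongly autofluorescent ones (cut at about 32% in these data); inactive = the rest, inconclusive results apart.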
# System: diphosphomevalonate decarboxylase (Streptococcus pneumoniae D39)
# Assay: S. pneumoniae DPM-DC inhibitors, primary screen, biochemical, PK/LDH-coupled NADH fluorescence (AID 556);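 as to inhibition: kinetic rate of NADH fluorescence loss reporting ADP formed by the decarboxylase; 0% = full reaction rate with carrier and 100% = no-substrate background rate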
# Conditions: purified DPM-DC, at 10 µM; hits give high values
row,Structure (SMILES),inhibition
1,CP(=S)(Nn1cnnc1)Oc1ccccc1 (configuration not stated),inactive: 1%
2,COP1(=S)c2c(C)nn(CCC#N)c2N=C(c2ccc(F)cc2)N1C (configuration not stated),inactive
3,CP(=O)(NC(=O)Nc1ccccc1)Oc1ccccc1 (configuration not stated),inactive
4,O=C(COc1ccccc1)OC1CN2CCC1CC2 (configuration not stated),inactive
5,CCOP(C)(=S)SCC(=O)NC(C)C(=O)O (configuration not stated),inactive
6,O=C(OC1CN2CCC1CC2)C12CC3CC(CC(C3)C1)C2 (configuration not stated),inactive
7,Cc1ccc(NP(C)(=O)Oc2ccccc2)c(C)c1 (configuration not stated),inactive
8,COc1ccccc1OP(C)(=O)Nc1ccc(C)cc1 (configuration not stated),inactive
9,CCOP1(=S)c2c(C)nn(CCC#N)c2N=C(c2ccccc2F)N1C (configuration not stated),inactive
10,CCOP1(=S)c2c(C)nn(CCC#N)c2N=C(c2ccc(F)cc2)N1C (configuration not stated),inactive
11,Cc1cccc(OCC(=O)OC2CN3CCC2CC3)c1 (configuration not stated),inactive
12,Cc1ccc(C)c(NP(C)(=O)Oc2ccccc2)c1 (configuration not stated),inactive
13,O=P1(Nc2ccccn2)COc2ccccc2OC1,inactive: 7%
14,Clc1n[nH]nc1-c1nn[nH][15n]1,inactive
15,Cc1nc2ccc3ccccc3c2s1.O=[N+]([O-])c1cc([N+](=O)[O-])c(O)c([N+](=O)[O-])c1,inactive: 2%
16,Cc1nn(-c2ccccc2)c2c1P(=O)(N1CCOCC1)N(C)C(c1ccccc1)=N2 (configuration not stated),inactive
17,O=P1(Nc2ncccn2)COc2ccccc2OC1,inactive: 1%
18,Cc1ccc(OCC(=O)OC2CN3CCC2CC3)cc1 (configuration not stated),inactive
19,O=P1(Nc2ccc(Br)cn2)COc2ccccc2OC1,inactive

row,Structure (SMILES),inhibition
1,CN(C)CCOC(=O)C(O)(c1ccccc1)C1CCCCC1 (configuration not stated),inactive
2,O=C(OC1CN2CCC1CC2)c1cccc(Cl)c1 (configuration not stated),inactive
3,O=P(Nc1nccs1)(c1ccccc1)c1ccccc1,inactive: 14%
4,CCOP(C)(=S)SCC(=O)NC(C)(CC)C(=O)O (configuration not stated),inactive
5,c1nnnn1CCn1cnnn1,inactive
6,CP(=O)(Nc1ccc2c(c1)OCCO2)Oc1ccccc1 (configuration not stated),inactive
7,Cc1ccccc1NP(C)(=O)Nc1ccccc1C,inactive
8,O=P1(Nc2nc3ccc(Cl)cc3s2)COc2ccccc2O1 (configuration not stated),inactive
9,CP(=O)(Nc1ccccc1F)Oc1ccccc1 (configuration not stated),inactive
10,COC(=O)c1cc2c(s1)N=C(c1ccccc1)N(C)P2(=O)N1CCOCC1 (configuration not stated),inactive
11,COc1ccccc1OP(C)(=O)Nc1ccc(C)c(C)c1 (configuration not stated),inactive
12,Cc1nc2ccc3ccccc3c2o1.O=[N+]([O-])c1cc([N+](=O)[O-])c(O)c([N+](=O)[O-])c1,inactive: 22%
13,Cc1c2non([O-])c-2c(C)[n+](=O)[n+]1[O-],inactive
14,CP(=O)(Nc1ccccn1)Oc1ccccc1 (configuration not stated),inactive
15,CCN(CC)CC(O)COC(=O)C(O)(c1ccccc1)C1CCCCC1 (configuration not stated),inactive
16,COc1ccccc1OP(C)(=O)Nc1c(C)n(C)n(-c2ccccc2)c1=O (configuration not stated),inactive
17,CCc1nc2c(n1)c1c(non1O)c1c2no[n+]1[O-],inactive
18,CP(=O)(Oc1ccccc1)N1CCOC1=O (configuration not stated),inactive
